# Measurements: PMC3479967, “Drug-Drug Interactions Potential of Icariin and Its Intestinal Metabolites via Inhibition of Intestinal UDP-Glucuronosyltransferases” (Evidence-based Complementary and Alternative Medicine : eCAM, 2012)
# pIC50: −log10 of the molar value.
# Key:
# [1] = biological target: T1, UGT2B4 (Homo sapiens, UniProt P06133); test: Inhibition of recombinant UGT2B4 activity (4-MU glucuronidation); conditions: read-out: IC50 for inhibition of UGT2B4 activity; recombinant human UGT2B4, 1200 μM 4-MU, mean ± SD
# T1 sequence (P06133 24-528): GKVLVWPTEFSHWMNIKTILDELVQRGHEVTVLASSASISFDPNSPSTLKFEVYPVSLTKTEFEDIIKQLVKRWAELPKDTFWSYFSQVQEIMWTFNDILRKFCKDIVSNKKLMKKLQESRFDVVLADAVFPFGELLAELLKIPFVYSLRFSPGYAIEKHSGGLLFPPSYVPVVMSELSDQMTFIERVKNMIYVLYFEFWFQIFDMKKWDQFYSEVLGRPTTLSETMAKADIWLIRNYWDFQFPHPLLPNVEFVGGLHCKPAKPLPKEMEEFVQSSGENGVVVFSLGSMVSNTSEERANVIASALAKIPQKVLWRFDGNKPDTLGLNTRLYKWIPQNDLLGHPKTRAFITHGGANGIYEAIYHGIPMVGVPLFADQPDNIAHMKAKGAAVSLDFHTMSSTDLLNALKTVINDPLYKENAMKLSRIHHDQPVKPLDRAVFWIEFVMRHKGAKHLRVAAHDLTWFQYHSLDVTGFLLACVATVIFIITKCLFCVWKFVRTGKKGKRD
# Method: (§1) A panel of recombinant human UGT supersomes (UGT1A1, UGT1A3, UGT1A4, UGT1A6, UGT1A7, UGT1A8, UGT1A9, UGT1A10, UGT2B4, UGT2B7, UGT2B15, and UGT2B17) expressed in baculovirus-infected insect cells were purchased from BD Gentest Corp. (Woburn, MA, USA).
# (§2) 4-MU, a nonselective substrate of UGTs, was used as probe substrate for all UGTs except UGT1A4. Incubations with each individual enzyme were conducted using conditions previously described. There was a 5 min preincubation step at 37°C before the reaction was started by addition of UDPGA. The incubation mixtures were then centrifuged at 20,500 ×g for 15 min to obtain the supernatant. Aliquots (20 μL) were then analyzed by HPLC. The HPLC system (SHIMADZU, Kyoto, Japan) consisted of an SCL-10A system controller, two LC-10AT pumps, a SIL-10A auto injector, and a SPD-10AVP UV detector. Chromatographic separation was achieved using a Kromasil ODS column (4.6 × 150 mm I.D., 5 μm particle size) at a flow rate of 1 mL/min and UV detection at 316 nm. The mobile phase consisted of 10 mM KH2PO4, pH 2.7 (A) and acetonitrile (B). […]
# (§3) Inhibition data from experiments were graphically represented by Dixon plots. K i values were calculated by nonlinear regression using the equations for competitive inhibition (1), noncompetitive inhibition (2), or mixed inhibition (3), [22] […]
# [2] = biological target: T2, UGT1A6 (Homo sapiens, UniProt P19224); test: Inhibition of recombinant UGT1A6 activity (4-MU glucuronidation); conditions: read-out: IC50 for inhibition of UGT1A6 activity; recombinant human UGT1A6, 110 μM 4-MU, mean ± SD
# T2 sequence (P19224 27-532): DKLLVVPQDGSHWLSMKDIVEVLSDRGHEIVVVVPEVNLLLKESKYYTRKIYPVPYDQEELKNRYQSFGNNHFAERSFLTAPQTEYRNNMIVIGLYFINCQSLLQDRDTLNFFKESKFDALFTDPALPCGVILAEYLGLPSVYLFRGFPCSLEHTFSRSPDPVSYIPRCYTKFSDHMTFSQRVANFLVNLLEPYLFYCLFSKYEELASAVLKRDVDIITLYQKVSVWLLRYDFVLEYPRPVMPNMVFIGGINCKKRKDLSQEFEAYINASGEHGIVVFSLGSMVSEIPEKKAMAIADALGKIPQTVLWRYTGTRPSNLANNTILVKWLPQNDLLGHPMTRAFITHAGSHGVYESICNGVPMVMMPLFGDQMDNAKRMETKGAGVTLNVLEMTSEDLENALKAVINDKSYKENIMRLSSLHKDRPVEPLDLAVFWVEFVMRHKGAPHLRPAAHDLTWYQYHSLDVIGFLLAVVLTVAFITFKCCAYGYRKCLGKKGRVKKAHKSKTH
# Method: as §1, §2, §3
substance,measurement,setting,value
Icariside II,pIC50,[1],< 4.00
same,pIC50,[2],< 4.00
